Measurements: patent US20180371021A1, “PEPTIDOMIMETIC MACROCYCLES AND USES THEREOF” (Aileron Therapeutics, Inc., priority 2017, published 2018)

Test system: SJSA-1 cells
Test: Cell viability assay (MTT), SJSA-1
Format: cell-based
Conditions: read-out: SJSA-1 EC50 (72 h)

## CC(=O)N[C@@H](CC(C)C)C(=O)N[C@H](C(=O)N[C@@H](Cc1ccccc1)C(=O)N[C@]1(C)CCCCCCC=CCCC[C@]2(C)NC(=O)[C@H](CC(C)C)NC(=O)[C@](C)(CCCC=CCCC[C@@](C)(C(=O)N[C@@H](C)C(N)=O)NC(=O)[C@H](CO)NC2=O)NC(=O)[C@H](C)NC(=O)[C@H](Cc2c[nH]c3ccccc23)NC(=O)[C@H](Cc2ccc(O)cc2)NC(=O)[C@H](C)NC1=O)[C@@H](C)O
  EC50: 5 to 15 µM
